The test deals with Orexin/Hypocretin receptor type 1 (Homo sapiens, UniProt O43613). In words: Antagonist activity at human orexin 1 receptor expressed in HEK293 cells assessed as inhibition of orexin-induced calcium mobilization after 60 mins by FLIPR assay. It counts as functional, cell-based. On the technique in general: Calcium assays in cells follow changes in intracellular calcium, usually with a dye or a luminescent sensor.

Chains of the proteins cited; added tags and fusions are not shown.
UniProt O43613, whole entry: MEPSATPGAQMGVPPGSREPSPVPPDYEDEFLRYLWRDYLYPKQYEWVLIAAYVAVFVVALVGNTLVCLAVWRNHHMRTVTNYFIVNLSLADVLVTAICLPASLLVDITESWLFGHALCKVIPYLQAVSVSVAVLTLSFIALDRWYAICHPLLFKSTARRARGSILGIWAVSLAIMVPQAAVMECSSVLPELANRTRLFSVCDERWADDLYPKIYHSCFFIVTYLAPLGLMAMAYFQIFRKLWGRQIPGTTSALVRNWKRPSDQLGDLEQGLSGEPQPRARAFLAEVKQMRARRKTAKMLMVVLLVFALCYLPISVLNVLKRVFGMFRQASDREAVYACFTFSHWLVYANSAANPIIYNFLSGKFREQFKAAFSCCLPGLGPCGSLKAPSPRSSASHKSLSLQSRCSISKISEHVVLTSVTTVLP

For 1 compound, IC50 results are on record in ChEMBL document CHEMBL3997829, “Discovery of novel substituted octahydropyrrolo[3,4-c]pyrroles as dual orexin receptor antagonists for insomnia treatment” (Bioorg Med Chem Lett, 2017).

By IC50 is commonly meant the concentration that inhibits the measured activity by half.

Regarding `Cc1ccc(-n2nccn2)c(C(=O)N2CCN(c3nc4cc(Cl)ccc4o3)CC[C@H]2C)c1` [SUVOREXANT], the 50% inhibitory concentration (IC50) is 0.199 µM.
